The record followed here is ChEMBL document CHEMBL1130962, “Selective alpha-1a adrenergic receptor antagonists. Effects of pharmacophore regio- and stereochemistry on potency and selectivity” (Bioorg Med Chem Lett, 1998).

Amino acid sequences for entries named in this document (tags omitted).
UniProt P42866, whole entry, looked up: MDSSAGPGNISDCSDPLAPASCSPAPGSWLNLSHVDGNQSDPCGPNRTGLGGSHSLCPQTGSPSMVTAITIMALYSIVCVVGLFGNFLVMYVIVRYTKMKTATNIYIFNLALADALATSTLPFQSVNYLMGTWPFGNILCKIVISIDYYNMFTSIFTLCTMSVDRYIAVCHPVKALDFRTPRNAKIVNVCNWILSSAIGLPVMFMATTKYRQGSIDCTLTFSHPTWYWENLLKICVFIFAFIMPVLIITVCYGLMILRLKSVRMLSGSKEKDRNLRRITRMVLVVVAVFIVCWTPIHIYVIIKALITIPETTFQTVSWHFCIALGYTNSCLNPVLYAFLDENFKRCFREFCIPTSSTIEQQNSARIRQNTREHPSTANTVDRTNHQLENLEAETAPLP

pKi: −log10 of the molar value.

The target in the test is Mu-type opioid receptor (Mus musculus, UniProt P42866). Briefly: Opioid binding affinity was evaluated using [3H]DAMGO as radioligand.

By pKi is commonly meant the negative decadic logarithm of the Ki, by convention in mol/L. A high value points to a small Ki. On to `CCOC(=O)C1(c2ccccc2)CCNCC1`, for which the pKi was 5.89.
